This is a sample that favours compounds with a hit; in the whole collection about 13% have one here.
LMNA splice mod – changes lamin A minigene splicing in HeLa cells; 0.01% of 200,000 active; HeLa LMNA splicing GFP/RFP minigene ratio, 48 h; AID 1487; Potency, µM (highest dose often 46.1 µM), inactives show at the top dose ratio change, negative = inhibition, usual class: inhibitors; active = well fitted inhibition curve with a large enough effect in the signal ratio, with a control signal flat, not every such curve was filed as active; inconclusive = small, poorly fitted or top-dose-only effect, or effect the other way, or a change in a side signal; the % refers to the signal ratio; also: potency is read from the fitted curve at half-maximal effect; % is scaled to controls: 0 for no effect and ±100 for the full control effect
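S3 HeLa stable clones carrying a lamin A-EGFP splicing minigene plus DsRed2 were seeded at 600 cells/well in Opti-MEM with 2% FBS, pin-dosed and incubated 48 h at 37°C. Acumen cytometry (488 nm) gave the GFP/RFP total-intensity ratio.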
G9a block – G9a (human) methyltransferase inhibition | Q96KQ7 | G9a H3K9 monomethylation, AlphaScreen, 2 h | Potency, µM (series often up to 102 µM), for inactives: at the highest dose activity, negative = inhibition, most hits filed as inhibitors | 8.8% of 350,000 active | AID 504332; also: potency is read from the fitted curve at half-maximal effect; % is scaled to controls: 0 for no effect and ±100 for the full control effect; nearly all actives have a fitted effect of over 75% in size
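Enzyme 20 nM + cpd, 15 min RT; add b-H3K9 pep 500 nM / SAM 20 uM; 2 h RT; anti-H3K9me1 Ab 0.5 ug/mL + SA donor / anti-rabbit acceptor beads 20 ug/mL each, 10 min; AlphaScreen read.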
ALDH1A1 block – inhibitors of human aldehyde dehydrogenase 1A1; P00352; Purified ALDH1A1, NADH fluorescence, propionaldehyde substrate; Potency, µM (top dose mostly 75.3 µM), for inactives: at the highest dose activity, negative = inhibition, usual class: inhibitors; 7.3% of 220,000 active; AID 1030; active = well fitted inhibition curve with a large enough effect, not every such curve was filed as active; inconclusive = small, poorly fitted or top-dose-only effect, or another doubt; inactive = no such curve, though single readings can be large or run the other way;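 also: potency is read from the fitted curve at half-maximal effect; plate controls were no enzyme wells and a reference inhibitor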
miR-21 FLuc – miR-21 reporter, rising signal; HeLa miR-21 FLuc reporter, luciferase, 48 h; Potency, µM (highest dose often 38.3 µM), for the others: top-dose reporter change, positive = more light; 340,000 tested, under 10 active; AID 2288; active = well fitted rising curve with a large enough effect; inconclusive = small, poorly fitted or top-dose-only effect; inactive = no such curve, though single readings can be large or run the other way;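 further: % of control where 0% means no effect; miR-21 action dims this reporter so a rising signal means less miR-21 action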
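HeLa miR-21-FLuc reporter line, endogenous miR-21; 2000 cells/well in DMEM/10% FBS; compound titration up to ~40uM final, 48 h, 37 degree Celsius; luciferase detection reagent, 15 min lysis, CCD luminescence.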
JMJD2E inh – JMJD2E (human) inhibition; B2RXH2; JMJD2E catalytic domain, FDH-coupled NADH fluorescence (FDH is formaldehyde dehydrogenase); Potency, µM (series often up to 57.1 µM), for the others: at the highest dose activity change, negative = inhibition, most hits filed as inhibitors; 1.6% of 230,000 active; AID 2147; active = well fitted inhibition curve with a large enough effect, not every such curve was filed as active; inconclusive = small, poorly fitted or top-dose-only effect, or another doubt; inactive = no such curve, though single readings can be large or run the other way;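 also: potency is read from the fitted curve at half-maximal effect; 0% = wells with enzyme and -100% = buffer wells without enzyme; nearly all actives have a fitted effect of over 50% in size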
Sfp inh – blocks B. subtilis Sfp PPTase activity; 310,000 tested, 3.5% active; AID 1490; Biochemical Sfp PPTase activity, qHTS; Potency, µM, for the others: max response, negative = inhibition, usual class: inhibitors; active = well fitted inhibition curve with a large enough effect; inconclusive = small, poorly fitted or top-dose-only effect, or another doubt; inactive = no such curve, though single readings can be large or run the other way;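 also: the enzyme is Sfp with the accession as filed and its product quenches rhodamine fluorescence; potency is read from the fitted curve at half-maximal effect; 0% = enzyme reaction without inhibitor and -100% = no enzyme wells; top concentration of the series not given in the record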
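After 15 min at room temperature with compound, 15 nM Sfp received 5 uM rhodamine-CoA plus 12.5 uM BHQ-2-ybbR (50 mM Hepes pH 7.6, 10 mM MgCl2). Rate came from the fluorescence difference over 30 min, ex 525/em 598 nm.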
The depositor's hits bear a star; ? = inconclusive; · = not tested or not shown; [ ] = remark or other dose. Unless noted, calls follow the shape of the dose curve; as a rule, active = well fitted curve in the direction sought with a large enough effect; inconclusive = small, poorly fitted or top-dose-only effect, or another doubt; inactive = no such curve, though single readings can be large; an effect the other way counts as inactive or inconclusive.

SMILES	LMNA splice mod	G9a block	ALDH1A1 block	miR-21 FLuc	JMJD2E inh	Sfp inh
CCc1cccc(CC)c1NC(=O)CNCc1cccs1	·	35µM*	·	-2%	·	-4%
CCOC(=O)c1ccc(NC(=O)CSc2nccn2-c2ccc(OCC)cc2)cc1	·	?	·	21%	·	·
Cc1ccc2nc(C(F)OC(F)(F)F)[nH]c2c1 (configuration not stated)	-7%	7%[59 µM]	0.71µM*	-6%	0%	7%
Cc1nc(-c2cccc(NC(=O)c3ccc(-n4cccn4)cc3)c2)cs1	·	19%[12.7 µM]	·	·	·	·
c1ccc(CCSc2nccn2-c2ccccc2)cc1	-2%	45µM*	-9%	-63%	2%	3%
CCOc1ccccc1NC(=O)CSc1nccn1-c1ccccc1	-13%	?	-11%	-5%	5%	-5%
COC(=O)CCCSc1nccn1-c1ccccc1	2%[46 µM]	45µM*	-13%	-5%	12%	5%
Cc1nc(SCC(=O)NC2(C#N)CCCC2)n(CC(C)C)c1C	·	40µM*	·	·	·	·
CC[C@H](C)[C@@H](CN[C@H](C)CNC)NCCC(c1ccccc1)c1ccccc1	·	45µM*	·	?	·	17%
Cc1ccccc1C(=O)Nc1ccccc1C(=O)OCc1cc(=O)n2nc(C3CC3)sc2n1	10%[46 µM]	9%[59 µM]	·	-15%	·	·
Cc1cc(C=C2C(=O)c3ccccc3C2=O)c(C)n1-c1ccccc1	?	-11%	16µM*	-22%	-1%	-5%
CC1=NN(c2ccccc2)C(=O)/C1=C\c1cc(C)n(-c2ccccc2)c1C	-1%	3.5µM*	?	1%	3%	9%
CC(=O)C(=Cc1cc(C)n(-c2ccccc2)c1C)C(C)=O	?	?	?	-15%	2%	5%
Cc1cc(C=C2C(=O)c3ccccc3C2=O)c(C)n1-c1ccc(C(=O)O)cc1	·	35µM*	5.6µM*	-6%	-2%	?
Cc1ccc(-n2c(C)cc(C=C3C(=O)CC(C)(C)CC3=O)c2C)cc1	14%	-18%[59 µM]	0.89µM*	-4%	-6%	1%
Cc1c(C(=O)Nc2ccc(F)c(Cl)c2)sc2nc3n(c(=O)c12)CCC3	?	-1%[59 µM]	·	8%	·	·
O=C(OCC(=O)N1CCCc2ccccc21)c1cc(Br)ccc1O	·	-14%	·	·	·	·
COc1ccccc1/C=C1\Cc2ccccc2C1=O	17%[46 µM]	-8%[0.501 µM]	-13%	-43%	?	-21%
Cc1cc(C=C2C(=O)c3ccccc3C2=O)c(C)n1-c1cccc(C(=O)O)c1	·	40µM*	10µM*	-64%	-2%	0%
Cc1cc(/C=C2\Cc3ccccc3C2=O)c(C)n1-c1ccccc1	?	11%[59 µM]	7.9µM*	-23%	?	-20%
CN(C)c1cccc(C(=O)NCCCSc2ccccc2)c1	·	40µM*	·	-30%	·	-5%
CN(C)c1cccc(C(=O)NCCCn2ccc3ccccc32)c1	·	71µM*	·	-16%	·	-7%
CCCOC(=O)c1ccc(Nc2nc3ccccc3nc2-n2nc(C)cc2C)cc1	·	15%[59 µM]	·	-2%	·	·
COc1cc(NC(=O)CC(C)S(=O)(=O)c2ccc3c(c2)CCN3C(C)=O)cc(OC)c1OC (configuration not stated)	·	11µM*	·	7%	·	·
COc1cc(NS(=O)(=O)c2ccc3c(c2)CCCN3C(C)=O)cc(OC)c1OC	22%[46 µM]	9%[59 µM]	·	13%	·	·
CCOc1ccccc1NC(=O)C1CCC(CNS(=O)(=O)c2ccc3c(c2)CCCC(=O)N3)CC1 (configuration not stated)	·	-1%[59 µM]	·	25%	·	·
Cc1sc2ncnc(N3CCC(C(=O)Nc4nc(-c5ccc(F)cc5)cs4)CC3)c2c1C	·	-53%	·	·	·	·
CC1=C(Sc2nc3ccccc3[nH]2)C(=O)NC(C)(C)C1	?	12%[59 µM]	2%	-20%	1%	21%
CC(C)N1C(=O)S/C(=C/c2ccc(Sc3nc4ccccc4[nH]3)o2)C1=O	?	71µM*	7.1µM*	-7%	-9%	7%
C=CCN1C(=O)S/C(=C/c2ccc(Sc3nc4ccccc4[nH]3)o2)C1=O	?	2µM*	10µM*	6%	-2%	0%

Ordered by molar mass (rising): part of the list above
SMILES	LMNA splice mod	G9a block	ALDH1A1 block	miR-21 FLuc	JMJD2E inh	Sfp inh
COc1ccccc1/C=C1\Cc2ccccc2C1=O	17%[46 µM]	-8%[0.501 µM]	-13%	-43%	?	-21%
CCOc1ccccc1NC(=O)CSc1nccn1-c1ccccc1	-13%	?	-11%	-5%	5%	-5%
COc1cc(NS(=O)(=O)c2ccc3c(c2)CCCN3C(C)=O)cc(OC)c1OC	22%[46 µM]	9%[59 µM]	·	13%	·	·
CCOC(=O)c1ccc(NC(=O)CSc2nccn2-c2ccc(OCC)cc2)cc1	·	?	·	21%	·	·
